Key:
[1] = test system: M2 macrophages; test: Inhibition of human M2 macrophage differentiation and survival; assay type: cell-based
Experimental: (§1) Human monocytes were isolated from peripheral blood using the RosetteSep™ Human Monocyte Enrichment Cocktail (StemCell Tech.—Cat. No. 15028). Enriched monocyte populations were seeded into 96 well microtiterplates (2.5×10^4 cells/well) in 100 μl RPMI 1640 (Gibco—Cat. No. 31870) supplemented with 10% FCS (GIBCO—Cat. No. 011-090014M), 4 mM L-glutamine (GIBCO—Cat. No. 25030) and 1× PenStrep (Roche Cat. No. 1 074 440) at 37° C. and 5% CO2 in a humidified atmosphere. When 100 ng/ml huCSF-1 was added for 6 days to the medium, a clear differentiation into adherent, M2 macrophages with elongated morphology could be observed. When 100 ng/ml huGM-CSF was added to the medium for 6 days, a clear differentiation into adherent, M1 macrophages with round morphology could be observed. This differentiation was associated with the expression of certain markers such as CD 163 for M2 macrophages and CD80 or high MHC class II for M1 macrophages as assessed by flow cytometry. […] Pellets were resuspended in 1 ml staining buffer and cells counted in a Neubauer chamber. […] The Alexa 647 label was conjugated to the antibody by using the Zenon Alexa 647 mouse IgG labeling kit (Invitrogen Cat. No. Z25008) After a 1-hour incubation on ice cells were washed twice with staining buffer, resuspended and measured at a FACS Canto II. […]

[2] = test system: M1 macrophages; test: Inhibition of human M1 macrophage differentiation and survival; assay type: cell-based
Experimental: as §1

[3] = antibody treatment 7 days, CellTiterGlo

hMab 2F11-e7: humanized version of Mab 2F11; heavy chain variable domain SEQ ID NO: 39, light chain variable domain SEQ ID NO: 40; anti-human CSF-1R dimerization inhibitor
M2 macrophage differentiation ([1]; 100 ng/ml huCSF-1, CD163 expression, flow cytometry): could be inhibited | M2 macrophage survival [1, 3]: is affected | M1 macrophage differentiation ([2]; 100 ng/ml huGM-CSF, flow cytometry): Exclusively M2 macrophage differentiation | M1 macrophage survival [2, 3]: but not M1
